According to publication PMC7435673, “Synthesis of α-Aminophosphonic Acid Derivatives Through the Addition of O- and S-Nucleophiles to 2H-Azirines and Their Antiproliferative Effect on A549 Human Lung Adenocarcinoma Cells” (Molecules, 2020):

Assay: in vitro
Details: human

| Structure (SMILES) | IC50 at 48 h [µM] |
| --- | --- |
| C=C(Sc1ccccc1)C(N)P(=O)(OCC)OCC (stereo not drawn) [Compound 15e, Diethyl [1-amino-2-(phenylthio)allyl]phosphonate] | > 50 |
| CCOP(=O)(OCC)C(N)C(C)(OC)OC (stereo not drawn) [Compound 4f, Diethyl (1-amino-2,2-dimethoxypropyl)phosphonate] | > 50 |
| COC(C)(OC)C(N)P(=O)(OC(C)C)OC(C)C (stereo not drawn) [Compound 4e, Diisopropyl (1-amino-2,2-dimethoxypropyl)phosphonate] | > 50 |
